{
  "source": "ChEMBL document CHEMBL3351542",
  "about": "“Nonpeptide small molecule agonist and antagonist original leads for neuropeptide FF1 and FF2 receptors” (J Med Chem, 2014)",
  "data": [
    {"target": "Delta-type opioid receptor (Homo sapiens, UniProt P41143)", "assay": "Displacement of [3H]DPDPE from human DOR expressed in HEK293 cells after 60 mins by scintillation counting analysis", "units": {"Ki": "µM"}, "values": [
      {"smiles": "N=C(N)NCC(=O)NCC1(Nc2cccc3ccccc23)CCN(Cc2ccccc2)CC1", "Ki": "> 5"},
      {"smiles": "N=C(N)NCCNC(=O)C1(Nc2ccccc2)CCN(Cc2ccccc2)CC1", "Ki": 2.49},
      {"smiles": "COc1cc(NC2(CNC(=O)CNC(=N)N)CCN(Cc3ccccc3)CC2)cc(OC)c1", "Ki": "> 5"},
      {"smiles": "N=C(N)NCC(=O)NCC1(Nc2ccccc2)CCN(Cc2ccccc2)CC1", "Ki": "> 5"}
    ]}
  ]
}
